{
  "sequences": {"note": "Protein sequences, listed by entry. Tags and fused reporters are not part of them.", "UniProt P05177, whole entry": "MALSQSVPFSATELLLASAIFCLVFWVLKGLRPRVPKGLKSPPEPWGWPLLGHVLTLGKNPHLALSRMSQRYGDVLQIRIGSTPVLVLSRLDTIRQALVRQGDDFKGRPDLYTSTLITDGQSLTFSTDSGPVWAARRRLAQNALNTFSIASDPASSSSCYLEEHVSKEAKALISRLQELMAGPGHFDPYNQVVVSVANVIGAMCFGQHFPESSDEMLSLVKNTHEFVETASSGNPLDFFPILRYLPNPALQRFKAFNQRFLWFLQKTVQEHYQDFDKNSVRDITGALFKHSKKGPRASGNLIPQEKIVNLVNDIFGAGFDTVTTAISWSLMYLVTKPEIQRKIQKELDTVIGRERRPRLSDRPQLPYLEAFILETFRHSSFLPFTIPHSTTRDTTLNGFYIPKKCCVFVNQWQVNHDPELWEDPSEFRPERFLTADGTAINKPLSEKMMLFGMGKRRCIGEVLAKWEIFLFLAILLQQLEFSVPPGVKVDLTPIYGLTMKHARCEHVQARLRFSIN"},
  "source": "ChEMBL document CHEMBL2346505",
  "about": "“Pyranoflavones: a group of small-molecule probes for exploring the active site cavities of cytochrome P450 enzymes 1A1, 1A2, and 1B1” (J Med Chem, 2013)",
  "molecular_target": "Cytochrome P450 1A2 (Homo sapiens, UniProt P05177)",
  "test": "Inhibition of CYP1A2 (unknown origin)-mediated demethylation of resorufin methyl ether after 5 mins by spectrofluorimetric analysis",
  "type": "ADME",
  "method_in_brief": "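Microsomal P450 (final 5 nM) in 0.1 M potassium phosphate pH 7.6 with MgCl2; resorufin ether or coumarin substrate final 5 μM from DMSO stock; inhibitor added in DMSO, DMSO alone for controls. Reaction started with NADPH regenerating system (NADP+, glucose 6-phosphate, G6P dehydrogenase) at 37 °C; product formation followed fluorimetrically as progress curves.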",
  "data": [
    {"smiles": "O=c1cc(-c2ccccc2)oc2c3c(ccc12)OCC=C3", "values": [
      {"measurement": "IC50", "result": 59, "unit": "nM"}
    ]}
  ]
}
